Measurements as given in ChEMBL document CHEMBL4673237, “Annulation reaction enables the identification of an exocyclic amide tricyclic chemotype as retinoic acid Receptor-Related orphan receptor gamma (RORγ/RORc) inverse agonists” (Bioorg Med Chem Lett, 2020).

Chains of the proteins cited; added tags and fusions are not shown.
UniProt Q13133, whole entry: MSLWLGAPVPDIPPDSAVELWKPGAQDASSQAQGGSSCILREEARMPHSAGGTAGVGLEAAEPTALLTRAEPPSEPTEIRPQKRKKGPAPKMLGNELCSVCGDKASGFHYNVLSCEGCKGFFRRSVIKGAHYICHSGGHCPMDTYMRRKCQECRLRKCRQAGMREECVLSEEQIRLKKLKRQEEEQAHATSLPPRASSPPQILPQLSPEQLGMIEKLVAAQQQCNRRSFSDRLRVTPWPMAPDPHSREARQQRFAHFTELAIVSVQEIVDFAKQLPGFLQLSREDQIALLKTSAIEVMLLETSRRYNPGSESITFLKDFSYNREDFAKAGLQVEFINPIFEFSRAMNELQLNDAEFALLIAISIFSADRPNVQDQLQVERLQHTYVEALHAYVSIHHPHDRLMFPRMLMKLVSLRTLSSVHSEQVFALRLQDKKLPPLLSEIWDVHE
UniProt P55055, whole entry: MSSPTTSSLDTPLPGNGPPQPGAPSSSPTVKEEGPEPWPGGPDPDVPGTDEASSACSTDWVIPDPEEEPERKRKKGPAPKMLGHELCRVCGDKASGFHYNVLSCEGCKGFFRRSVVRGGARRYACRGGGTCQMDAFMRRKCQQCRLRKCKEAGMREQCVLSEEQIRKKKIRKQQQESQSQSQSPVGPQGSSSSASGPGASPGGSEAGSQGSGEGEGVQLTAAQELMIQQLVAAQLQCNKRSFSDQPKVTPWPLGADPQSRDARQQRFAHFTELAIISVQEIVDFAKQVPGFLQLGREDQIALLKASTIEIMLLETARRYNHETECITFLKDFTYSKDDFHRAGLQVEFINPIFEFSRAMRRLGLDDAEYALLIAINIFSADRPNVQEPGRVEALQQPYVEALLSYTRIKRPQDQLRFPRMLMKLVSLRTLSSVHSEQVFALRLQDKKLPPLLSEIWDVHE

Assays:
[1] = molecular target: T1, Nuclear receptor ROR-alpha (Homo sapiens) (UniProt P35398); experiment: Inhibition of RORalpha (unknown origin); settings: dose microM >10
T1 sequence (whole entry): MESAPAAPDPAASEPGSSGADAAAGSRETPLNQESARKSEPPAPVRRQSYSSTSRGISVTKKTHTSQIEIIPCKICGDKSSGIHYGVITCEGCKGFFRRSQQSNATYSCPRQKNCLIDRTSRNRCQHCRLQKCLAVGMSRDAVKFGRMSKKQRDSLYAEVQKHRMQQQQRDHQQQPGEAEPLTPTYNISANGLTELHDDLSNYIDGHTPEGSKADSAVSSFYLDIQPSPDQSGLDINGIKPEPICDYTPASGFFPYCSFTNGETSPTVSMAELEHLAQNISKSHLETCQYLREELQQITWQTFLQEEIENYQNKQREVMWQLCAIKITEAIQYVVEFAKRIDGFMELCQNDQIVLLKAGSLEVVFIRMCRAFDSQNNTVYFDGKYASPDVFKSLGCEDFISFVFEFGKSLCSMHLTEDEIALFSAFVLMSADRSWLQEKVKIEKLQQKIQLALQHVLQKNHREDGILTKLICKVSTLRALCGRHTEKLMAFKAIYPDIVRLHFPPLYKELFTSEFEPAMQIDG

[2] = molecular target: Oxysterols receptor LXR-alpha (Homo sapiens) (UniProt Q13133); experiment: Inhibition of LXRalpha (unknown origin); settings: dose microM >7.5
[3] = molecular target: T2, Nuclear receptor ROR-beta (Homo sapiens) (UniProt Q92753); experiment: Inhibition of RORbeta (unknown origin); settings: dose microM >10
T2 sequence (whole entry): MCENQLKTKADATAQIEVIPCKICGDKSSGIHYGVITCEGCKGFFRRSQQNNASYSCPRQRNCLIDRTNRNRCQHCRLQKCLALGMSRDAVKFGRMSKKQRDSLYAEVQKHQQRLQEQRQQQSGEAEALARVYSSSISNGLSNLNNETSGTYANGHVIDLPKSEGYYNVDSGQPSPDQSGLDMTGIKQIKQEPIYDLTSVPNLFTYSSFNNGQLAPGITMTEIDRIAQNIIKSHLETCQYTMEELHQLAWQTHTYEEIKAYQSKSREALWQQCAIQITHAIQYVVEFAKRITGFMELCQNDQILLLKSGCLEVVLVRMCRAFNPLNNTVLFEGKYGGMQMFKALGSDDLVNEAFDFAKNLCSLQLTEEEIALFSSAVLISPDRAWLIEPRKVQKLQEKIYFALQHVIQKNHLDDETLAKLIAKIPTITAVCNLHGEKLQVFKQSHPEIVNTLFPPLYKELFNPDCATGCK

[4] = molecular target: Oxysterols receptor LXR-beta (Homo sapiens) (UniProt P55055); experiment: Inhibition of LXRbeta (unknown origin); settings: dose microM >3.8

INH [1]: > 10 µM
INH [2]: > 7.5 µM
INH [3]: > 10 µM
INH [4]: > 3.8 µM
Structure (SMILES): CC(C)(O)CNC(=O)[C@@H]1CC[C@@]2(S(=O)(=O)c3ccc(F)cc3)c3ccc(C(F)(C(F)(F)F)C(F)(F)F)cc3CC[C@@H]12
